Results reported in patent US8668921B2, “Lipase inhibitors” (Suntory Holdings Limited, priority 2004, dated 2014).
pIC50: −log10 of the molar value.

Molecular target: T1, porcine pancreatic lipase (Sus scrofa, UniProt P00591)
T1 construct: purchased Sigma
T1 sequence (P00591 1-450): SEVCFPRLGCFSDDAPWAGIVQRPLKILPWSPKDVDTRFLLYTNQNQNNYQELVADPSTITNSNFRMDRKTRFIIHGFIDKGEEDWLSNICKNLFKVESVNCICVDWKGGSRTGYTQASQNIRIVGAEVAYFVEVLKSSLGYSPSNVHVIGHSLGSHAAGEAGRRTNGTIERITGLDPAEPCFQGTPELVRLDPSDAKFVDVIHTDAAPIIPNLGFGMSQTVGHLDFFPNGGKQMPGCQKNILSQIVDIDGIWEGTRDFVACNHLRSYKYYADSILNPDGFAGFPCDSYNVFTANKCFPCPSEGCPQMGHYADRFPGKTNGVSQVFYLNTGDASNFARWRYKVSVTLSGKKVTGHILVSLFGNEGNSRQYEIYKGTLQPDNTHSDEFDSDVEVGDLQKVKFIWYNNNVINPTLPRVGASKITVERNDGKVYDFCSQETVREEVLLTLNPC
Test: Lipase inhibitory activity assay (4-MUO fluorescent substrate)
Type: biochemical
Conditions: 4-MUO substrate, 25° C., 30 minutes, pH 8.0

With “(−)-catechin 3-O-gallate [(−)-catechin 3-O-gallate (6)]” the pIC50 was 6.07.
